{"source": "PubChem BioAssay AID1716", "about": "(Vanderbilt High Throughput Screening Facility, 2009)", "note": "This is a selection; strong and weak results do not stand in their true shares. Inconclusive results are not listed. Activity calls are given as the source filed them.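 How the source made its calls: active means thallium flux rate significantly above the same plate's solvent-only control wells, beyond their mean plus 3 SD; inconclusive means the two replicate wells gave conflicting results; inactive means the rest.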", "data": [{"assay": "thallium flux modulation in parental HEK cells, confirmation, counter-screen for KCC2 modulator project, cell-based, counterscreen 1 (AID 1716)", "settings": "HEK293 parental cells, thallium flux FluoZin2, ouabain; at 10 µM; baseline-ratio fluorescence slope, 10–20 s after thallium", "values": [{"compound": "CP(=O)(Nc1ccccc1)Oc1ccc(F)cc1", "note": "(stereo unspecified)", "thallium flux rate (normalised fluorescence)": "inactive: 0.00786"}]}]}
